Experimental data as given in ChEMBL document CHEMBL3414545, “Fused heterocycles bearing bridgehead nitrogen as potent HIV-1 NNRTIs. Part 4: design, synthesis and biological evaluation of novel imidazo[1,2-a]pyrazines” (Eur J Med Chem, 2015).

Target: Human immunodeficiency virus type 1 reverse transcriptase (Human immunodeficiency virus 1, UniProt Q72547)
Test: Inhibition of HIV1 reverse transcriptase assessed as reduction in biotin-labeled dUTP incorporation into DNA using poly(A) x oligo(dT)15 as template/primer after 1 hr by ELISA
Summary of the method: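 Wild-type HIV-1 RT was assayed with a plate-bound homopolymer poly[A]·oligo[dT]₁₅ template/primer and biotin-dUTP, following the Roche RT kit protocol. Incorporated biotin-dUTP, a measure of RT activity, was quantified by ELISA. Percentage inhibition was calculated by formula, and IC₅₀ is the concentration inhibiting biotin-dUTP incorporation by 50%.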

Cc1cc(C#N)cc(C)c1Oc1nc(Nc2ccc(C#N)cc2)nc(N)c1Br [ETRAVIRINE]
IC50: 130 nM
